# Ab-14 light chain CDR variants: yeast mating affinities

Source: Li et al. 2023 (doi:10.1038/s41467-023-39022-2), MIT Lincoln Laboratory and A-Alpha Bio; data file from the FLAb repository.

Target: peptide PDVDLGDISGINAS, taken from heptad repeat 2 (HR2) of SARS-CoV-2 spike.

Parent scFv Ab-14: VH joined to VL by a (GGGGS)3 linker. Changes lie in the light chain CDRs alone.
VH: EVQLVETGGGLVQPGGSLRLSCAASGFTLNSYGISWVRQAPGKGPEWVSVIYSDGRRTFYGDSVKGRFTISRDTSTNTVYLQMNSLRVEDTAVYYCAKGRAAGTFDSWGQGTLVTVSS
VL: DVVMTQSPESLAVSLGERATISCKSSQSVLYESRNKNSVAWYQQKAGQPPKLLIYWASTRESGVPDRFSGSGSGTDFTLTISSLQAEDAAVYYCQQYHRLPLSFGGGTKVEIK

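The parent was found by panning a naive human phage display library on the peptide. This is the validation round: designs drawn from the data on random variants, tested in the same kind of assay. Their group label is 14L_Ctrl (Ctrl: baseline library sampled from a position-specific scoring matrix, with some repeated check sequences). In AlphaSeq, yeast of one mating type display the scFv and yeast of the other type display the target. Mating (16 h, 30 °C) was followed by selection of diploids and sequencing of their barcodes. Each replicate has its own calibration line, from reference interactions of the BCL2 family. Mating was done six times.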

Positions count from residue 1 of the parent VL; S25D puts D in place of S. Scale: log10 of Kd in nM, estimated from mating counts; low values are strong binders. A mean of the replicates is given; it leaves out those without a signal. Where no diploid with the target was found in that replicate, the entry reads "nd": below detection, most likely a poor binder, though not proof of it.

| # | changes | log10 Kd, replicates | log10 Kd (nM), mean | empty controls |
|---|---|---|---|---|
| 1 | S25D N35Q R99M | nd / nd / nd / nd / nd / nd | nd | 0 of 18 |
| 2 | Y31V R34S W56E | 0.51 / 0.49 / -0.03 / 0.20 / 0.18 / 0.69 | 0.34 | 2 of 18 (2.46) |
| 3 | S25I S62E | 0.20 / 0.34 / 0.06 / 0.85 / 0.53 / 0.65 | 0.44 | 1 of 18 (1.99) |
| 4 | K24V V29T L100W | nd / nd / nd / nd / nd / nd | nd | 0 of 18 |
| 5 | L30S W56Q H98M | 0.05 / -0.22 / -0.10 / -0.16 / -0.25 / -0.19 | -0.14 | 0 of 18 |
| 6 | S25L S38H | 1.17 / 1.42 / 1.98 / 1.28 / 2.98 / 1.02 | 1.64 | 0 of 18 |
| 7 | W56N T59K | 1.65 / 1.19 / 1.24 / 1.71 / 1.72 / 2.20 | 1.62 | 0 of 18 |
| 8 | L30Q S62D R99S L102I | nd / 1.68 / nd / 1.65 / nd / nd | 1.66 | 0 of 18 |
| 9 | Q27T S33N W56N S62E | 0.23 / -0.26 / 0.09 / -0.59 / -0.31 / -0.34 | -0.20 | 0 of 18 |
| 10 | Y31L | 1.96 / 1.45 / nd / 1.31 / 2.38 / 2.41 | 1.90 | 1 of 18 (2.01) |
| 11 | A57K S58Q | nd / nd / nd / nd / nd / nd | nd | 0 of 18 |
| 12 | S33D R34E R99D | nd / 2.79 / nd / 2.58 / 1.91 / nd | 2.43 | 0 of 18 |
| 13 | L30T R34S | 1.59 / 0.94 / 1.83 / 1.48 / 1.34 / 1.63 | 1.47 | 1 of 18 (2.39) |
| 14 | Q27M R34G T59L | nd / 0.84 / 2.57 / nd / nd / nd | 1.71 | 0 of 18 |
| 15 | S26D E61V S62N | 2.03 / 1.76 / 2.88 / 2.68 / 2.03 / 1.28 | 2.11 | 0 of 18 |
| 16 | S26E W56S P101H | 1.70 / nd / nd / 1.38 / 0.80 / 1.67 | 1.39 | 0 of 18 |
| 17 | S25F N35H S62V Y97C | nd / nd / nd / nd / nd / nd | nd | 1 of 18 (0.67) |
| 18 | Y31S K36Q N37Y W56K | 1.67 / 2.26 / 1.35 / 1.72 / 1.49 / 1.39 | 1.65 | 0 of 18 |
| 19 | Y31E E32D | 1.13 / 1.32 / 1.00 / 1.10 / 1.04 / 1.04 | 1.10 | 1 of 18 (2.96) |
| 20 | S28D A40W | nd / nd / nd / nd / nd / nd | nd | 0 of 18 |
| 21 | S25V Q27I L30K W56D R99E | 0.30 / 0.31 / 0.30 / 0.28 / 0.53 / 0.32 | 0.34 | 1 of 18 (3.29) |
| 22 | S25I S26D T59M | 2.19 / 2.28 / 1.22 / 1.11 / 1.64 / 1.63 | 1.68 | 0 of 18 |
| 23 | Q27A S28E L30T Y31I R34D K36C W56S | nd / 1.37 / nd / nd / nd / 1.08 | 1.23 | 1 of 18 (1.67) |
| 24 | S26A W56A S58D S62N | -0.66 / -0.62 / -0.56 / -0.84 / -0.67 / -0.64 | -0.66 | 1 of 18 (1.53) |
| 25 | Q95E | nd / nd / nd / nd / nd / nd | nd | 0 of 18 |
| 26 | L30R W56D H98R S103M | 0.23 / 0.14 / 0.15 / 0.16 / 0.22 / 0.38 | 0.21 | 1 of 18 (1.64) |
| 27 | Q27V V29A W56H Q96N | 0.79 / 0.87 / 1.46 / 1.39 / 0.90 / 1.37 | 1.13 | 1 of 18 (1.83) |
| 28 | L30N | 2.10 / 2.21 / 2.99 / 2.11 / 1.73 / 2.16 | 2.22 | 1 of 18 (2.77) |
| 29 | L30E R34A S62D | 1.25 / 1.36 / 0.94 / 0.90 / 1.01 / 1.33 | 1.13 | 1 of 18 (2.48) |
| 30 | W56A S103P | nd / 0.72 / 0.70 / 0.79 / 0.77 / 1.73 | 0.94 | 0 of 18 |
| 31 | L30D R34V W56N | 0.53 / 0.60 / 0.34 / 0.58 / 0.24 / 0.43 | 0.45 | 0 of 18 |

The authors averaged sequences with at least three values out of six and counted those with two or fewer as poor binders. The parent sequence was in this pool as ten entries: three were never detected, three once, and four in most replicates, with averages from 0.34 to 2.37. Nonspecific signal, from three strains lacking the peptide, appeared in 4% of pairings of all light chain designs, centred on 2.64 (5% of these signals below 1.59); values are not corrected for it. The control count says in how many pairings with the empty strains this scFv gave a signal, with their mean in brackets. A sequence measured in both rounds can read differently, since the two assays cover different ranges.